Tests used:
Melanocortin receptor 3 = Melanocortin receptor 3 (Homo sapiens, UniProt P41968); experiment: In vitro cAMP accumulation in HEK cells transfected with human Melanocortin 3 receptor (hMC3R); type: functional, cell-based, HEK293
[1] = molecular target: Melanocyte-stimulating hormone receptor (Homo sapiens, UniProt Q01726); experiment: In vitro cAMP accumulation in HEK cells transfected with human Melanocortin 1 receptor (hMC1R); type: functional, cell-based, HEK293

Chains of the proteins cited; added tags and fusions are not shown. Lines headed by an entry give the natural chain unless they say otherwise; changes in a name come on top.
UniProt P41968: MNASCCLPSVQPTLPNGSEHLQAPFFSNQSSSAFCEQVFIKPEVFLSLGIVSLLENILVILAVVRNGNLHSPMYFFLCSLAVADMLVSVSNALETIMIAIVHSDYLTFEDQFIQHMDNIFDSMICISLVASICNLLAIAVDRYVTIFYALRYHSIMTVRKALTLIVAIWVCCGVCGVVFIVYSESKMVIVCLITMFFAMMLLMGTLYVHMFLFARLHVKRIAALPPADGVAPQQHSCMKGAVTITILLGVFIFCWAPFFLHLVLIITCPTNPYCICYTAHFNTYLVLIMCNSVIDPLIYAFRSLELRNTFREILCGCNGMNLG
UniProt Q01726: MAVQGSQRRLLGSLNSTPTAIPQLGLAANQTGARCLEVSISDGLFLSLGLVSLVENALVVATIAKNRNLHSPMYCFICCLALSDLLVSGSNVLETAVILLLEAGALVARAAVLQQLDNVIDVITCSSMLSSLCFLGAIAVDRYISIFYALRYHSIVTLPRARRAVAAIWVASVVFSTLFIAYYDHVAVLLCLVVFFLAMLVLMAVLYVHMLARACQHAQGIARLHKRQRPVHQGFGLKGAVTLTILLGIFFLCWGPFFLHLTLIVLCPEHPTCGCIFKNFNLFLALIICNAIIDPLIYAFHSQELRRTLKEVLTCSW

EC50 (Melanocortin receptor 3): 1.4 µM
EC50 [1]: 1.4 µM
SMILES: O=C(N[C@H](Cc1ccc(Cl)cc1)C(=O)N1CCC(Cn2cncn2)(C2CCCCC2)CC1)[C@H]1Cc2ccccc2CN1
